Earlier results on 1 substance are cited in PMC5454592, “Pharmacological and Toxicological Properties of the Potent Oral γ-Secretase Modulator BPN-15606” (The Journal of Pharmacology and Experimental Therapeutics, 2017).

The data set deals with amyloid plaques. Details: method as in Sevigny et al., 2016. To be noted: 52-week, 166-patient phase 1b trial, relative to placebo; ref Sevigny et al., 2016; cited from earlier work.

In the case of “aducanumab: anti-Aβ human monoclonal antibody (Biogen)”, the “amyloid plaques by florbetapir positron emission tomography imaging” value is listed as “statistically significant dose-dependent reduction of amyloid plaques”; the “cognitive decline (Mini-Mental State Examination and Clinical Dementia Rating)” value is “statistically significant reduction in cognitive decline”.
